# Only a part is listed here, and it is no random draw. Inconclusive results are not listed. Active and inactive are the calls of the source.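 Rule for the calls: active = cell viability at or below a set limit in both duplicate runs, the limit being the all-compound median minus 4 SD (cut at about 23% in these data, passing the limit was not always enough); inconclusive = no clear call, values can overlap the other calls; inactive = the rest.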
# Test: growth suppression of beta-catenin knockout HCT116, pilot screen, human colon tumor cells (AID 823);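 note: 0% = wells killed by 20 µM Hyamine and 100% = untreated DMSO cell wells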
# Conditions: CellTiter-Glo, 60 h, at 10 µM, hits give low values
row,Compound,viability
1,Fc1ccccc1NC1CCN(Cc2ccccc2)CC1,inactive: 83.9%

# — PubChem BioAssay AID823 (SRMLSC, 2007)
